This is an account of results in ChEMBL document CHEMBL1135602 (J Med Chem, 2002).

Amino acid sequences for entries named in this document (tags omitted). A change or cut given only in a name is not applied to a line headed by its entry.
UniProt P13922: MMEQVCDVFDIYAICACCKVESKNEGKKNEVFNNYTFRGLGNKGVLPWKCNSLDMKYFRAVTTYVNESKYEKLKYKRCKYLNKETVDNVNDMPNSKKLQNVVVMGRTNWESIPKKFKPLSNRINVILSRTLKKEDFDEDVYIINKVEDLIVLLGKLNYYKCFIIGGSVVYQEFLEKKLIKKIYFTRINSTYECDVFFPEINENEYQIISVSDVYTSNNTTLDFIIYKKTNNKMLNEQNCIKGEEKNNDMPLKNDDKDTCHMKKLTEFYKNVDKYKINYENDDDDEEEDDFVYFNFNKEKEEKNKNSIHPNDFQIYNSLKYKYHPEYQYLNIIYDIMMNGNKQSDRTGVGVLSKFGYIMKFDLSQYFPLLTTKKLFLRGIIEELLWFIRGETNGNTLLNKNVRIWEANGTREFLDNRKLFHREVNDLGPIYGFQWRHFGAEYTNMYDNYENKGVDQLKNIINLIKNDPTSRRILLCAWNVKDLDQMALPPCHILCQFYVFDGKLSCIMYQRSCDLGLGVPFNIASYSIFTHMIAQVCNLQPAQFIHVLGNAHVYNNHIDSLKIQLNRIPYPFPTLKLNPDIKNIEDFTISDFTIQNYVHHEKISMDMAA

In the test the target is Bifunctional dihydrofolate reductase-thymidylate synthase (Plasmodium falciparum K1) (UniProt P13922). As to the kind of experiment: Inhibition of the wild-type dihydrofolate reductase (DHFR) relative to Tmp.

As for `COc1cc(Cc2cnc(N)nc2N)ccc1OCc1cc(OC)c(OC)c(OC)c1`, the Relative activity was 0.06.
